# Ab-95 light chain CDR variants: yeast mating affinities

The measurements come from Engelhart et al. 2022 (doi:10.1038/s41597-022-01779-4) through the FLAb antibody collection.

All variants were tested on one target, the spike HR2 peptide PDVDLGDISGINAS (SARS-CoV-2).

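The starting antibody came from a phage panning campaign against this peptide. Variants in AAYL52 differ from the parent at up to three CDR positions; double and triple changes were sampled at random. AlphaSeq pools MATa yeast showing the antibodies with MATalpha yeast showing the peptide. Pairs that bind mate more often; barcode pairs of the diploids are counted by sequencing. A regression on co-assayed BCL2-family reference pairs converts the normalised counts of each replicate to an apparent Kd. Each pool was mated in three replicate cultures.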

Parent scFv Ab-95: VH joined to VL by a 15-residue (Gly4Ser)3 linker. Changes lie in the light chain CDRs alone.
VH: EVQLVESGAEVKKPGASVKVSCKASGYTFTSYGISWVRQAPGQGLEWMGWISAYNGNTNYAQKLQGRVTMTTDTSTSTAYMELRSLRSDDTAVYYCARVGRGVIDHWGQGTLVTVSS
VL: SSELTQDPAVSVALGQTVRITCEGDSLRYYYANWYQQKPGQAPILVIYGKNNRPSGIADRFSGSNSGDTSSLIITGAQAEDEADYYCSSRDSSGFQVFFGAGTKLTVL

Variants are written as CDR1, CDR2 and CDR3 of the light chain (limits as in the source). Parent: EGDSLRYYYAN, GKNNRPS, SSRDSSGFQVF.
Every variant below is changed at F95 of the VL (sequential numbering).
The Kd shown is the geometric mean over detected replicates; a lower Kd is a better binder.
"nd" means that the variant was in the library but no mating with the target was seen in any replicate; the authors take this as a sign of poor binding, and no number exists.
As a blank, each scFv also met three strains without target: over library AAYL52, 28% of these pairings were detected, typically at 8.2 µM and seldom below 800 nM. Also given: how often the same scFv was detected with the empty control strains.

For EGDSLRYYYAN / GKCNRPS / SSRDSSGGQHF, the assay gave 7.9 µM (3 of 3 replicates; controls 5 of 9). With EGDSLRYYYAN / PKNNRPS / SSRDSSKVQVF the result was 18 µM (1 of 3 replicates; controls 3 of 9). Variant EGDSLRDYYAN / GKNNRHS / SSRDSSGQQVF gave 1.2 µM (3 of 3 replicates; controls 3 of 9). With EGDWLRYYYAN / GQNNRPS / SSRDSSGNQVF the result was 4.3 µM (3 of 3 replicates; controls 2 of 9). With EGDSLRYYYAN / GKNNRPH / SSRDSSGCQVK the result was 290 nM (3 of 3 replicates; controls 4 of 9). Variant EGDSLRYVYAN / GKNNRKS / SSRDSSGIQVF gave 3.0 µM (1 of 3 replicates; controls 1 of 9).

Variant EGDSLRYYYAN / LKNNRPS / SSRDHSGTQVF gave 29 µM (2 of 3 replicates; controls 4 of 9). Variant EGDSLRYYYAN / GKNNRPS / SSIDSSGPQYF showed 2.2 µM (3 of 3 replicates; controls 0 of 9). Variant EGDSLRYYYAN / GKNNSPS / SSRDSSGPQVF showed 7.6 µM (2 of 3 replicates; controls 3 of 9). For LGDSLRYYYAN / GKNNRGS / SSRDSSGLQVF, the assay gave 2.5 µM (3 of 3 replicates; controls 3 of 9). Variant EQDSLRYYYAE / GKNNRPS / SSRDSSGEQVF showed nd (0 of 3 replicates; controls 2 of 9). Variant EGDSSRYYYAN / GKNNRPS / SSRDSSGAQVF showed 2.6 µM (2 of 3 replicates; controls 2 of 9).

With EGKSLRYYYAN / GKNNRPS / SSRDSSGSQVA the result was 6.3 µM (2 of 3 replicates; controls 1 of 9). Variant EGDSLRYYYHN / GKNNRPS / PSRDSSGMQVF showed 40 µM (3 of 3 replicates; controls 4 of 9). With EGDSLRNYYAV / GKNNRPS / SSRDSSGPQVF the result was 5.3 µM (1 of 3 replicates; controls 0 of 9). For EGDSLRYYYAN / GKNNTPS / SSRDSSGIRVF, the assay gave 1.7 µM (3 of 3 replicates; controls 5 of 9). With EGDSSRYYYAN / GKNNRPS / SPRDSSGLQVF the result was nd (0 of 3 replicates; controls 0 of 9). Variant GGDSLRYYYAN / GKNNRPS / RSRDSSGSQVF showed 2.4 µM (3 of 3 replicates; controls 3 of 9).

For EGDSLRMYYAN / GKMNRPS / SSRDSSGEQVF, the assay gave 580 nM (1 of 3 replicates; controls 4 of 9). With EGDSLRYYYAN / GKTNYPS / SSRDSSGWQVF the result was 4.3 µM (1 of 3 replicates; controls 3 of 9). Variant EGDSLRYYYAN / GKNNRPS / SCRDSSGDQVF showed 150 nM (3 of 3 replicates; controls 2 of 9). For EGDSLRYYYAN / GKNNRPS / DSRDSSGNQVF, the assay gave 430 nM (1 of 3 replicates; controls 3 of 9). For EKDSLRYYYAN / GKNNRPS / SSFDSSGRQVF, the assay gave nd (0 of 3 replicates; controls 2 of 9). Variant EGDSLRYYSIN / GKNNRPS / SSRDSSGAQVF showed 90 nM (3 of 3 replicates; controls 1 of 9).

For EGDSLRYYKAN / GDNNRPS / SSRDSSGLQVF, the assay gave 82 nM (3 of 3 replicates; controls 2 of 9). With EGQSLRYYYAN / GKNNRPS / SWRDSSGPQVF the result was 5.8 µM (1 of 3 replicates; controls 3 of 9). Variant EGDSLRYYYAN / WKNNFPS / SSRDSSGQQVF gave nd (0 of 3 replicates; controls 0 of 9). With EGDSLRYYYAN / GKNNRPS / SSRDSSGRQWF the result was 340 nM (3 of 3 replicates; controls 5 of 9). With EGDSLRYYYAN / GKNKRPS / SSRDSSGIQPF the result was 4.2 µM (1 of 3 replicates; controls 2 of 9). Variant EGDSLRYYAAN / GKNERPS / SSRDSSGEQVF gave 38 nM (3 of 3 replicates; controls 3 of 9).

Variant EGMSLRYYYAN / GKNNRPS / SSVDSSGYQVF showed nd (0 of 3 replicates; controls 0 of 9). Variant EGDALRYYYAN / GKNNRLS / SSRDSSGNQVF gave 1.2 µM (3 of 3 replicates; controls 5 of 9). With EGDSYRAYYAN / GKNNRPS / SSRDSSGQQVF the result was 1.5 µM (2 of 3 replicates; controls 3 of 9). Variant EFDSLRYYYAN / GKCNRPS / SSRDSSGDQVF showed 24 µM (2 of 3 replicates; controls 2 of 9). With EGDSKRYYYAN / GKNNRPS / SARDSSGMQVF the result was 1.2 µM (3 of 3 replicates; controls 1 of 9). Variant EGDSLRYYYAN / GKNNNPS / SRRDSSGVQVF gave 3.1 µM (2 of 3 replicates; controls 4 of 9).

Variant EGDSLRYYYAN / GKNNRPY / SSRDSSGTQMF gave 300 µM (1 of 3 replicates; controls 2 of 9). With EGDSRRYYTAN / GKNNRPS / SSRDSSGIQVF the result was 3.1 µM (2 of 3 replicates; controls 2 of 9). For EGDSLRYPYAN / GKNNRPS / SSRDSSGTQYF, the assay gave 50 nM (3 of 3 replicates; controls 1 of 9). Variant EGDSLRYYYAN / GKNNRPS / SSRPSSLPQVF showed 2.0 µM (1 of 3 replicates; controls 1 of 9). With EGDSLRYYYAN / GKNNRPS / SARDSSGNQVF the result was 90 nM (3 of 3 replicates; controls 3 of 9). For EGDSLRYVYAN / GKNNEPS / SSRDSSGGQVF, the assay gave 33 µM (1 of 3 replicates; controls 4 of 9).

Variant EGDSLRYYYAN / GKNNLPS / SSRDSNGKQVF gave 2.0 µM (3 of 3 replicates; controls 4 of 9). With EGDSLRTYYAN / GKNNRPS / SSRDYSGSQVF the result was 94 nM (3 of 3 replicates; controls 3 of 9). Variant EGDSLRYYYAN / GKNDRSS / SSRDSSGHQVF gave 370 nM (2 of 3 replicates; controls 2 of 9). Variant EGDSLRYYYAP / GKNNRPS / SSRDSPGCQVF gave 56 µM (1 of 3 replicates; controls 4 of 9). For EGDSLIYYYAE / GKNNRPS / SSRDSSGGQVF, the assay gave nd (0 of 3 replicates; controls 1 of 9). Variant EGDSLRYYQAN / GKNNPPS / SSRDSSGTQVF showed 740 nM (3 of 3 replicates; controls 4 of 9).

With EGDSLRYYYAN / GKLNRPS / SSRDSSGNQNF the result was 1.2 µM (1 of 3 replicates; controls 3 of 9). Variant AGPSLRYYYAN / GKNNRPS / SSRDSSGCQVF showed 150 nM (3 of 3 replicates; controls 3 of 9).

Extract of 5 entries:

For EGDSLRYYYAN / GKNNRPS / SSIDSSGPQYF, the assay gave 2.2 µM (3 of 3 replicates; controls 0 of 9).
For EGDSLRYYYAN / WKNNFPS / SSRDSSGQQVF, the assay gave nd (0 of 3 replicates; controls 0 of 9).
For GGDSLRYYYAN / GKNNRPS / RSRDSSGSQVF, the assay gave 2.4 µM (3 of 3 replicates; controls 3 of 9).
For EGDSLRYYYAN / GKCNRPS / SSRDSSGGQHF, the assay gave 7.9 µM (3 of 3 replicates; controls 5 of 9).
For EGDSLRYYYAN / GKNNNPS / SRRDSSGVQVF, the assay gave 3.1 µM (2 of 3 replicates; controls 4 of 9).